Literature values as cited in patent US9272026B2, “HLA-A*1101-restricted WT1 peptide and pharmaceutical composition comprising the same” (International Institute of Cancer Immunology, Inc., priority 2006, dated 2016).

Sequences of proteins named here, by UniProt entry; tags and fusion partners are left off. A change or cut given only in a name is not applied to a line headed by its entry.
UniProt P19544: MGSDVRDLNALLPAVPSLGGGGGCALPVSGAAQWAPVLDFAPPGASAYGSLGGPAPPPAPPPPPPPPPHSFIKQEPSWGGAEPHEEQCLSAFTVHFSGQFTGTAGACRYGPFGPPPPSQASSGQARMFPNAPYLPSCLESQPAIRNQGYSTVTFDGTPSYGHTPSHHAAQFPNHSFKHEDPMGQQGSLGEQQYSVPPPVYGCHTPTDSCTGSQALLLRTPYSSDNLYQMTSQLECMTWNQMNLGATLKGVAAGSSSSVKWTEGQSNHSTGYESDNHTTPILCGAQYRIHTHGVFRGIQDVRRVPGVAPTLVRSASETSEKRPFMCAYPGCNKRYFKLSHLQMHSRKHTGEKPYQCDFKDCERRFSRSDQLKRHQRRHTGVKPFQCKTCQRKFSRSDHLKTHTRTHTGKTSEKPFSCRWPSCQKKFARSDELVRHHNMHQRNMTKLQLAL

Test system: human peripheral blood mononuclear cells having HLA-A*0201
Conditions: human PBMCs having HLA-A*0201; Non-patent Document 11; cited from earlier work

Db126 peptide: WT1 peptide having a high ability to bind to an HLA-A*0201 molecule (RMFPNAPYL; UniProt P19544 126-134, looked up, fragment)
induction of WT1-specific CTLs: WT1-specific CTLs are induced
